# Membrane permeability of cyclic peptides

Source: CycPeptMPDB (Li et al. 2023), which took these values from Townsend et al. 2020, doi:10.26434/chemrxiv.13335941.v1.

PAMPA is the parallel artificial membrane permeability assay, which has no cells and reads passive diffusion.
Permeability is given as log10 of P in cm/s; higher (less negative) is more permeable.

CC(C)C[C@@H]1NC(=O)[C@@H]2CCCN2C(=O)[C@H](CC(C)C)NC(=O)CN(Cc2ccccc2)C(=O)[C@H](C)N(C)C(=O)[C@H](Cc2ccccc2)NC1=O has PAMPA -5.88 (log10 cm/s).
CC(C)C[C@@H]1C(=O)N[C@@H](Cc2ccccc2)C(=O)N2CCC[C@H]2C(=O)N[C@@H](C)C(=O)N(C)[C@@H](CC(C)C)C(=O)N(Cc2ccccc2)CC(=O)N2CCC[C@H]2C(=O)N1C has PAMPA -5.77 (log10 cm/s).
CC(C)C[C@@H]1C(=O)N2CCC[C@H]2C(=O)N(Cc2ccccc2)CC(=O)N[C@@H](Cc2ccccc2)C(=O)N2CCC[C@@H]2C(=O)N[C@@H](C)C(=O)N[C@H](CC(C)C)C(=O)N1C has PAMPA -5.91 (log10 cm/s).
CC(C)C[C@@H]1NC(=O)C[C@H](Cc2ccccc2)NC(=O)[C@H]2CCCN2C(=O)[C@H](Cc2ccccc2)NC(=O)[C@@H](CC(C)C)N(C)C(=O)[C@@H]2CCCN2C(=O)[C@@H](CC(C)C)N(C)C1=O has PAMPA -5.42 (log10 cm/s).
CC(C)C[C@@H]1C(=O)N(C)[C@@H](CC(C)C)C(=O)N2CCC[C@@H]2C(=O)N(Cc2ccccc2)CC(=O)N[C@@H](Cc2ccccc2)C(=O)N2CCC[C@@H]2C(=O)N(C)[C@H](C)C(=O)N1C has PAMPA -6.28 (log10 cm/s).
CC(C)C[C@H]1NC(=O)[C@H](C)N(C)C(=O)[C@H]2CCCN2C(=O)[C@H](Cc2ccccc2)NC(=O)[C@H](CC(C)C)N(C)C(=O)[C@H]2CCCN2C(=O)CN(Cc2ccccc2)C1=O has PAMPA -5.74 (log10 cm/s).
CC(C)C[C@@H]1NC(=O)CN(Cc2ccccc2)C(=O)C[C@H](Cc2ccccc2)NC(=O)[C@@H]2CCCN2C(=O)[C@H](Cc2ccccc2)NC(=O)[C@@H](CC(C)C)NC(=O)[C@@H]2CCCN2C1=O has PAMPA -6.02 (log10 cm/s).
CC(C)C[C@@H]1NC(=O)[C@H]2CCCN2C(=O)[C@H](CC(C)C)NC(=O)[C@@H](CC(C)C)N(C)C(=O)[C@@H](C)N(C)C(=O)[C@H](Cc2ccccc2)NC1=O has PAMPA -5.10 (log10 cm/s).
CCCN1CC(=O)N[C@H](CC(C)C)C(=O)N(C)[C@H](CC(C)C)C(=O)N2CCC[C@H]2C(=O)N(C)[C@H](CC(C)C)C(=O)N[C@@H](Cc2ccccc2)C(=O)N2CCC[C@H]2C1=O has PAMPA -5.23 (log10 cm/s).
CC(C)C[C@@H]1C(=O)N[C@@H](Cc2ccccc2)C(=O)N2CCC[C@H]2C(=O)N(C)[C@@H](C)C(=O)N(C)[C@@H](CC(C)C)C(=O)N[C@@H](Cc2ccccc2)CC(=O)N2CCC[C@H]2C(=O)N1C has PAMPA -5.74 (log10 cm/s).
CC(C)C[C@@H]1C(=O)N(C)[C@@H](CC(C)C)C(=O)N2CCC[C@H]2C(=O)N[C@H](CC(C)C)C(=O)N[C@@H](Cc2ccccc2)C(=O)N(C)[C@H](C)C(=O)N1C has PAMPA -5.70 (log10 cm/s).
CC(C)C[C@@H]1NC(=O)[C@@H](CC(C)C)N(C)C(=O)C[C@H](Cc2ccccc2)NC(=O)[C@H]2CCCN2C(=O)[C@H](Cc2ccccc2)NC(=O)[C@@H](CC(C)C)N(C)C(=O)[C@H]2CCCN2C1=O has PAMPA -5.53 (log10 cm/s).
CC(C)C[C@H]1C(=O)N[C@@H](Cc2ccccc2)CC(=O)N2CCC[C@@H]2C(=O)N(C)[C@@H](CC(C)C)C(=O)N[C@@H](Cc2ccccc2)C(=O)N(C)[C@H](C)C(=O)N1C has PAMPA -5.19 (log10 cm/s).
CC(C)C[C@@H]1C(=O)N[C@@H](Cc2ccccc2)C(=O)N[C@H](C)C(=O)N(C)[C@H](CC(C)C)C(=O)N(C)[C@@H](CC(C)C)C(=O)N2CCC[C@@H]2C(=O)N1C has PAMPA -5.07 (log10 cm/s).
CC(C)C[C@@H]1NC(=O)[C@@H]2CCCN2C(=O)[C@H](CC(C)C)NC(=O)[C@@H](CC(C)C)NC(=O)C[C@H](Cc2ccccc2)NC(=O)[C@@H]2CCCN2C(=O)[C@H](Cc2ccccc2)NC1=O has PAMPA -5.61 (log10 cm/s).
CC(C)C[C@@H]1NC(=O)[C@@H](CC(C)C)N(C)C(=O)[C@@H](C)N(C)C(=O)[C@H](Cc2ccccc2)NC(=O)CN(Cc2ccccc2)C(=O)[C@@H]2CCCN2C1=O has PAMPA -4.73 (log10 cm/s).
CC(C)C[C@H]1C(=O)N(C)[C@@H](CC(C)C)C(=O)N2CCC[C@@H]2C(=O)N(Cc2ccccc2)CC(=O)N[C@@H](Cc2ccccc2)C(=O)N[C@H](C)C(=O)N1C has PAMPA -5.37 (log10 cm/s).

Excerpt, the opening 3 entries:

CC(C)C[C@@H]1NC(=O)[C@@H]2CCCN2C(=O)[C@H](CC(C)C)NC(=O)CN(Cc2ccccc2)C(=O)[C@H](C)N(C)C(=O)[C@H](Cc2ccccc2)NC1=O is reported with PAMPA -5.88 (log10 cm/s).
CC(C)C[C@@H]1C(=O)N[C@@H](Cc2ccccc2)C(=O)N2CCC[C@H]2C(=O)N[C@@H](C)C(=O)N(C)[C@@H](CC(C)C)C(=O)N(Cc2ccccc2)CC(=O)N2CCC[C@H]2C(=O)N1C is reported with PAMPA -5.77 (log10 cm/s).
CC(C)C[C@@H]1C(=O)N2CCC[C@H]2C(=O)N(Cc2ccccc2)CC(=O)N[C@@H](Cc2ccccc2)C(=O)N2CCC[C@@H]2C(=O)N[C@@H](C)C(=O)N[C@H](CC(C)C)C(=O)N1C is reported with PAMPA -5.91 (log10 cm/s).

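Conditions beyond the assay type are not listed; see the original paper. The list need not hold all peptides of the study. Peptides that the database sets to -10, its floor, are left out.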